Literature values, collected in patent publication US8546322B2, “Inhibitors of intracellular urokinase plasminogen activator and methods of use thereof” (The Regents of the University of California, priority 2007, dated 2013).

Test system: tumor cells
Conditions: cited from earlier work

N=C(N)NC(=O)c1nc(Cl)c(N)nc1N [Amiloride, 3,5-diamino-6-chloro-N-(diaminomethylene)pyrazinecarboxamide]
concentrations required for producing cytotoxic effects: ≥ 500 µM
